This note sets out measurements from patent publication US8143250B2, “6-7,dialkoxy quinazoline derivatives useful for treatment of cancer related disorders” (priority 2008, dated 2012).

“And” between values parts separate entries of the source, which are not always exact repeats. Equal values may be shown once. Where a name gives a salt, the structure may show the parent alone.

The assay concerns lung cancer. Briefly: Curative effect from in vivo studies in nude mice. Conditions: summary of the study.

On to `C#Cc1cccc(Nc2ncnc3cc(OCCOC)c(OCCOC)cc23)c1` [Erlotinib HCl, N-(3-Ethylnylphenyl)-6,7-bis(2-methoxyethoxy)-4-quinazolinamine, reference compound], for which the “curative effect (ratio of animals cured)” value was 50-60% and 40-60%.
